{
  "source": "paper PMC7216583",
  "about": "“Two old drugs, NVP-AEW541 and GSK-J4, repurposed against the Toxoplasma gondii RH strain” (Parasites & Vectors, 2020)",
  "origin": "cited, not measured here",
  "key": {"Akt2": {"tested_on": "Akt2", "set-up": "method as in vendor brief description", "conditions": "ref vendor brief description; cited from earlier work"}, "ACAT": {"tested_on": "ACAT", "set-up": "method as in S-inhibitor", "conditions": "ref S-inhibitor; cited from earlier work"}},
  "data": [
    {"smiles": "CC(C)NC[C@@H](C(=O)N1CCN(c2ncnc3c2[C@H](C)C[C@H]3O)CC1)c1ccc(Cl)cc1", "note": "[GDC-0068]", "values": [
      {"measurement": "IC50", "setting": "Akt2", "value": 18, "unit": "nM"}
    ]},
    {"smiles": "CC(C)c1cc(C(C)C)c(CC(=O)NS(=O)(=O)Oc2c(C(C)C)cccc2C(C)C)c(C(C)C)c1", "note": "[Avasimibe (CI-1011)]", "values": [
      {"measurement": "IC50", "setting": "ACAT", "value": 3300, "unit": "nM"}
    ]}
  ]
}
